# Laboratory results: patent US20120052025A1 (Colgate-Palmolive Company, priority 2009, published 2012)
# System: A. viscosus
# Assay: Inhibition of growth of A. viscosus
# Settings: dentifrice of increased pH compared with pH 7 paste
smiles,measurement,value
Cc1ccc([B-]2(c3ccc(C)c(Cl)c3)OC(=O)c3ncccc3[OH+]2)cc1Cl [Compound 1],"antibacterial effect, growth inhibition of A. viscosus",comparable to that of the pH 7 paste as well as commercial high quality toothpaste
